## Yeast mating assay 2: variants of the scFv Ab-95

Data: MIT Lincoln Laboratory AlphaSeq set, Engelhart et al. 2022, doi:10.1038/s41597-022-01779-4, as distributed in FLAb.

Binding partner: SARS-CoV-2 spike HR2 peptide, sequence PDVDLGDISGINAS.

The variants keep the heavy chain, the linker and the frameworks of Ab-95 (scFv order VH, a 15-residue (Gly4Ser)3 linker, VL).
VH: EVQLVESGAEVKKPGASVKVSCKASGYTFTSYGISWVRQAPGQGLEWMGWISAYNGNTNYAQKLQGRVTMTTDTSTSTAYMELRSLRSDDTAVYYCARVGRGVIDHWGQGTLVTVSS
VL: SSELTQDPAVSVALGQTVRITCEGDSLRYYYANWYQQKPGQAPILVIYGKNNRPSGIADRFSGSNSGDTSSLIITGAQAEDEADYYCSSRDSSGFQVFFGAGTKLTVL

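The parent was found by panning a naive human phage display library on the peptide. In library AAYL52, one, two or three CDR residues were substituted; doubles and triples were drawn at random. The scFvs were displayed on barcoded MATa yeast, the peptide on MATalpha yeast. Binding brings cells together so that they mate, and sequencing counts the barcode pairs among the diploids. The ratio of observed to expected reads was calibrated, replicate by replicate, on BCL2-family standards whose Kd was known from biolayer interferometry. Mating was done three times.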

Each variant is given by its three light chain CDRs, as the data file delimits them; those of the parent are EGDSLRYYYAN, GKNNRPS, SSRDSSGFQVF. Kd is apparent (estimated from mating counts) and averaged on the log scale over replicates with a signal. Smaller is tighter. "nd" means that the variant was in the library but no mating with the target was seen in any replicate; the authors take this as a sign of poor binding, and no number exists. For reference, the parent read 200 nM as the reference entry and 180 nM as a member of this library.

The variant EGDSLRPYYAN | GKNNRPQ | SGRDSSGFQVF gave 750 nM (3 of 3 replicates).
The variant EGDSLRYYYAN | GKNNRPS | SRTDSSGFQVF gave 620 nM (3 of 3 replicates).
The variant EGDSLRYYYAN | GKNNRPS | SHCDSSGFQVN gave nd (0 of 3 replicates).
The variant EGDHLRYYYAN | QKNNRPS | SSRDSSGSQVF gave 1.4 µM (1 of 3 replicates).
The variant EGDSLRYYYAN | GKPNRPS | SSSSSSGFQVF gave 18 µM (2 of 3 replicates).
The variant EGDSLRYYYAN | GKNNKPS | SSRDSSGFQAF gave 140 nM (3 of 3 replicates).
The variant EGDSLRYYYTN | YKNNRPS | SSRDSSGMQVF gave 290 µM (1 of 3 replicates).
The variant EGDSLRYYDAN | GKNNHPS | SSRDSSGFWVF gave 1.0 µM (3 of 3 replicates).
The variant EGDSLRYYYAN | GKNVRPI | SSRDRSGFQVF gave 200 nM (3 of 3 replicates).
The variant EGYSLVYYYAN | GKNNPPS | SSRDSSGFQVF gave nd (0 of 3 replicates).
The variant EGDYLRYYYAN | GKNNRPS | SVRDSSGPQVF gave 1.4 µM (3 of 3 replicates).
The variant EGDSLRYYYAN | GKNERSS | SSMDSSGFQVF gave 2.1 µM (3 of 3 replicates).
The variant EGDSLRYYYAN | GKNNTPS | SSRDSSFFQFF gave 8.1 µM (1 of 3 replicates).
The variant EGDSLRYYYAN | GKNLRPS | SSADSSGTQVF gave 460 nM (3 of 3 replicates).
The variant EGDSSRYYYAN | GKNNRPS | ISRDSSGFQVF gave 2.8 µM (3 of 3 replicates).
The variant EGDSVCYYYAN | GKNNRPS | SSRDSSGFQVF gave 32 µM (2 of 3 replicates).
The variant EGWSLGYYYAN | GKNNRPS | SSRDSSGSQVF gave 1.3 µM (3 of 3 replicates).
The variant EGDSLRYYYAA | GKNNRPS | SSVDSSGFQSF gave 2.6 µM (2 of 3 replicates).
The variant CGDSLRYYYKN | GKWNRPS | SSRDSSGFQVF gave 30 µM (2 of 3 replicates).
The variant EGDSLRYYYAH | GKNNRPS | SRRDSSGFQVF gave 9.6 µM (3 of 3 replicates).
The variant EGDPLRYYYHN | GKNNRPS | MSRDSSGFQVF gave 12 nM (3 of 3 replicates).
The variant EGDSLRYPYAN | GKNNRPS | SSRDMSGFQTF gave 76 nM (3 of 3 replicates).
The variant YADSLRYYYAN | GKNNRPS | SSRASSGFQVF gave 2.5 µM (3 of 3 replicates).
The variant EGDSLRYYYAN | YKHNRPS | SKRDSSGFQVF gave 3.1 µM (2 of 3 replicates).
The variant EGDSLRAWYAN | GKNNRPS | SSWDSSGFQVF gave 4.9 µM (3 of 3 replicates).
The variant HGDSLRYYYAN | GKNNRPS | SMRYSSGFQVF gave nd (0 of 3 replicates).
The variant EGDMLRYYYAN | GKNNRPS | SSRDRSGFQVF gave 4.0 µM (2 of 3 replicates).
The variant EGDSLRNYYAN | GKNARPS | SSRFSSGFQVF gave 1.3 µM (3 of 3 replicates).
The variant EGDSLRYYYAN | GKENRPS | SSRDSSIFQVR gave 110 µM (1 of 3 replicates).
The variant EGDSLRVYYAN | GKYNRPS | SSRVSSGFQVF gave 220 µM (1 of 3 replicates).
The variant SGDSLRYYYAN | GANNRPS | SSRDSSGFQTF gave 170 nM (3 of 3 replicates).
The variant AGDSLRYYYAN | GKNNRPS | SLRDSHGFQVF gave nd (0 of 3 replicates).
The variant EGDSLRYYYAN | GKINRPS | STRDSDGFQVF gave 3.7 µM (2 of 3 replicates).
The variant EKDSLRYYYAN | GKYNRPS | SSRDSSGFQLF gave 16 µM (1 of 3 replicates).
The variant EGDSLVYYYAN | VKNNRPS | SSRDSSGFQVH gave nd (0 of 3 replicates).
The variant EGDSLRHYYAN | GKNNVPS | SSRDSSGFQVF gave 180 nM (3 of 3 replicates).
The variant EGDSLRYYYAN | GKNHRPS | WSRDSSGFQVN gave 2.8 µM (2 of 3 replicates).
The variant DGDSLRYYYAN | GKHNRPS | SNRDSSGFQVF gave 66 µM (2 of 3 replicates).
The variant EGDSLRYYYAN | GKNNRPS | SSRDSSGKQGE gave 540 nM (1 of 3 replicates).
The variant EGASLRYYYAN | GYNNRPS | SSHDSSGFQVF gave nd (0 of 3 replicates).
The variant EGWSLRYYYAN | GSNNRPS | SSWDSSGFQVF gave 810 nM (3 of 3 replicates).
The variant EGDSLRYYYAN | GKNNRPS | SLRDASGYQVF gave 3.3 µM (3 of 3 replicates).
The variant PGDSLRYYYWN | GKNNRPS | SSRDSSGFQVV gave 390 nM (3 of 3 replicates).
The variant EGDSLRYYYAN | GKNNRPS | MSRDSSQFQVF gave 880 nM (3 of 3 replicates).
The variant EGDSLRGYYAN | GKNNRPS | SSRDSSGFEVS gave 14 µM (1 of 3 replicates).
The variant EGDSLHYYYAN | GKNNVPD | SSRDSSGFQVF gave 440 nM (3 of 3 replicates).
The variant EGDSLRYYYAN | GKCNRPS | SSVDSSGFQSF gave 6.0 µM (2 of 3 replicates).
The variant EGDSLRYYQAN | GVNNRPS | SSRDSSGFQVF gave 11 nM (3 of 3 replicates).

For reference, 3 entries of the list once more:

| CDR-L1 | CDR-L2 | CDR-L3 | apparent Kd | detected |
|---|---|---|---|---|
| EGDSLRYYDAN | GKNNHPS | SSRDSSGFWVF | 1.0 µM | 3 of 3 |
| DGDSLRYYYAN | GKHNRPS | SNRDSSGFQVF | 66 µM | 2 of 3 |
| EGDSLRYYYAN | GKNNRPS | MSRDSSQFQVF | 880 nM | 3 of 3 |

As a blank, each scFv also met three strains without target: over library AAYL52, 28% of these pairings were detected, typically at 8.2 µM and seldom below 800 nM.